Measurements as given in patent US20230025880A1, “FUSED TRICYCLIC COMPOUND AND MEDICINAL USE THEREOF” (JAPAN TOBACCO INC., priority 2020, published 2023).

Biological target: human PDHK2 (hPDHK2) (Homo sapiens, UniProt Q15119)
Assay: Inhibitory action of PDHK2 activity (residual PDH activity, NADH absorbance at 340 nm)
Details: read-out: hPDHK2 IC50; PDH/hPDHK2 complex, PDHK reaction 45 min at room temperature
Procedure: In the case of human PDHK2 (hPDHK2, NCBI Reference Database Accession number NM_002611.4), modified hPDHK2 cDNA wherein FLAG-Tag sequence was added to the N terminus of hPDHK2 cDNA clone (pReceiver-M01/PDK2-GeneCopoeia) as the base was prepared by polymerase chain reaction (PCR) and ligated to the NdeI/EcoRI site of pET-17b vector (Merck KGaA, Catalog Number 69663-3). The recombinant construct was transformed into Escherichia coli DH5α. The recombinant clones were identified, and plasmid DNA was isolated and subjected to the DNA sequence analysis. One clone which had the expected nucleic acid sequence was selected for expression work.
For expression of hPDHK2 activity, Escherichia coli strain BL21(DE3) cells (Merck KGaA, Catalog Number 69450-4) were transformed with the pET17b vector containing modified hPDHK2 cDNA. The Escherichia coli were grown to an optical density 0.6 ([…]) at 30° C. Protein expression was induced by the addition of 500 μmol/L isopropyl-β-thiogalactopyranoside. The Escherichia coli were cultured at 20° C. for 17-18 hr and harvested by centrifugation. The harvested Escherichia coli was resuspended in a suspension buffer (20 mmol/L HEPES-NaOH, 500 mmol/L sodium chloride, 1% ethylene glycol, 0.1% Pluronic (registered trademark) F-68 (pH 8.0), cOmplete, EDTA-free (Roche) (pH 8.0)), and disrupted by a microfluidizer M-110H (MIZUHO INDUSTRIAL CO., LTD.). The precipitate was removed by centrifugation and the supernatant was added to DDDDK-tagged Protein PURIFICATION GEL (MEDICAL & BIOLOGICAL LABORATORIES CO., LTD., Code No. 3329). DDDDK-tagged Protein PURIFICATION GEL was washed with a washing buffer (20 mmol/L HEPES-NaOH, 500 mmol/L sodium chloride, 1% ethylene glycol, 0.1% Pluronic F-68 (pH 8.0)) and the bound protein was eluted with elution buffer 1 (20 mmol/L HEPES-NaOH, 100 μg/mL peptide (amino acid sequence DYKDDDDK) (SEQ ID NO: 1), 500 mmol/L sodium chloride, 1% ethylene glycol, 0.1% Pluronic F-68 (pH 8.0)). […]

Row | SMILES | IC50 [nM]
1 | C[C@H]1Cn2c(nnc2C2CCC(F)(F)CC2)-c2cnc([C@@](C)(O)C(F)(F)F)n21 | 7.5
2 | C[C@H]1Cn2c(nnc2C(F)(F)C(F)(F)F)-c2cnc([C@@](C)(O)C(F)(F)F)n21 | 20
3 | C[C@H]1Cn2c(nnc2C(F)(F)c2ccc(F)cc2)-c2cnc([C@@](C)(O)C(F)(F)F)n21 | 9.1
